Experiment: Example 15: % Add on from aqueous (70%) ethanol (30%) composition, 50° C.
Format: physicochemical
Conditions: 10% lidocaine, 10% PEG 400, 10% propylene glycol, 2% Polysorbate 80; 91.4% polyamide/8.6% elastane, 1 h

Which “percentage Add on” value does the source give for `CCN(CC)CC(=O)Nc1c(C)cccc1C` [Lidocaine, lidocaine] here?
Its value is 56%.

— patent US20230255884A1, “FINISHED FIBROUS SRUCTURES AND METHODS OF THEIR USE AND PREPARATION” (CLEXIO BIOSCIENCES LTD., priority 2019, published 2023)
